Several values for one entry are separate records, joined by “and”; a condition that tells them apart may be missing. Equal values may be shown once. Only a part is listed here, and it is no random draw. Activity calls are given as the source filed them. Rule as the data show it: active = inhibition above about 40%; inactive = the rest.
These compounds were tested against Cyclic GMP-AMP synthase (Homo sapiens) (UniProt Q8N884) (assay: Biochemical Kinase-Glo luminescence primary assay, human cyclic GMP-AMP synthase inhibition (AID 1259398;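 also: 0% = vehicle reaction and 100% = reaction without DNA for no activity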)). Details: recombinant h-cGAS, ATP depletion, at 12.5 µM, hits give high values.

Protein sequences, listed by entry. Tags and fused reporters are not part of them.
UniProt Q8N884, whole entry: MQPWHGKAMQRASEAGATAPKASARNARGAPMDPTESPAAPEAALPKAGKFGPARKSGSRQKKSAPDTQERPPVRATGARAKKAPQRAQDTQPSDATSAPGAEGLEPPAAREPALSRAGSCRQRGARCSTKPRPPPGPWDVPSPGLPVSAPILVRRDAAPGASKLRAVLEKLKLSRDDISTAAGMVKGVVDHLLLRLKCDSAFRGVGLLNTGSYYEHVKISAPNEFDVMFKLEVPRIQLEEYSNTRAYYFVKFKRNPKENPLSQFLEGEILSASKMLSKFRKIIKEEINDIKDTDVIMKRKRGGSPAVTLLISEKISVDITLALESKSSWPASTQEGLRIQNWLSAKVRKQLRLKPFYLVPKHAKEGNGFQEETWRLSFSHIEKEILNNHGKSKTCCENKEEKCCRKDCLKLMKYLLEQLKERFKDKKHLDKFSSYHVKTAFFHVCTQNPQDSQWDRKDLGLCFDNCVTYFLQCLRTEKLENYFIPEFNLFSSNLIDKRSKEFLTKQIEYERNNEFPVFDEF

| Structure (SMILES) | inhibition |
| --- | --- |
| CC(C)(C)c1ncc(C(=O)NCC2(N3CCOCC3)CCCCC2)c(=O)[nH]1 | inactive: -12.3% |
| COc1ccc(N(C(=O)CC(C)C)C2CCNCC2)cc1 | inactive: -4.23% |
| CCc1ccc(N(C(=O)c2cccc(C)c2)C2CCNCC2)cc1 | inactive: -0.67% |
| Nc1cc(C(=O)NCC2(N3CCCC3)CCCCC2)[nH]n1 | inactive: -5.41% |
| Cc1ccc(N(C(=O)c2ccco2)C2CCNCC2)cc1F | inactive: -5.24% |
| Cc1nc2ncc(C(=O)N(C)CC3(N4CCCCC4)CCCCC3)c(=O)n2[nH]1 | inactive: 10.4% |
| O=c1[nH]c2ccccc2n1C1CCN(Cc2ccccn2)CC1 | inactive: -5.54% |
| O=C(NCC1(N2CCCCC2)CCCCC1)c1ccc2c(c1)OCO2 | inactive: -6.84% |
| Cc1cccc(N(C(=O)c2ccco2)C2CCN(C(=O)OC(C)(C)C)CC2)c1 | inactive: -6.87% |
| O=C(NCC1(N2CCOCC2)CCCCC1)c1ccc(OCC(F)(F)F)nc1 | inactive: 3.83% |
| COc1cccc(NC2CCN(Cc3ccncc3)CC2)c1 | inactive: 2.62% |
| N#Cc1ccc(C(=O)CBr)cc1 | inactive: -7.77% |
| O=c1[nH]c2ccccc2n1C1CCN(Cc2cccc(F)c2F)CC1 | inactive: -12.2% |
| CCOC(OCC)P(=S)(OCC)OCC | inactive: -2.72% |
| O=C(N[C@@H]1CCCC[C@H]1N1CCOCC1)c1cccc(Br)c1 | inactive: -1.94% |
| Cc1cc(=O)[nH]c(C(C)N2CCC(Nc3ccccc3)CC2)n1 (stereo not drawn) | inactive: -11.4% and inactive: -3.35% |
| Cc1nc(N)ncc1C(=O)NCC1(N2CCCC2)CCCCC1 | inactive: 3.48% |

| Structure (SMILES) | inhibition |
| --- | --- |
| O=C(NCC1(N2CCOCC2)CCCCC1)c1ccc2c3c(cccc13)CC2 | inactive: -2.46% |
| Cn1cc(C(=O)NCC2(N3CCCC3)CCCCC2)c(=O)[nH]c1=O | inactive: -18.1% |
| CCn1ccc(C(=O)N(C)CC2(N3CCCCC3)CCCCC2)cc1=O | inactive: -21.2% |
| O=C(NCC1(N2CCCCC2)CCCCC1)c1cc2c(s1)CCC2 | inactive: -3.47% |
| COCC(=O)N(c1cccc(C)c1)C1CCNCC1 | inactive: -3.73% |
| CN(CC1(N2CCCCC2)CCCCC1)C(=O)c1cnc2c(c1)nnn2C | inactive: -6.75% |
| COc1cc(NC2CCNCC2)cc(OC)c1 | inactive: -19.8% |
| COc1cccc(N(C(=O)c2cccc(Cl)c2)C2CCNCC2)c1 | inactive: -1.92% |
| O=C(NCC1(N2CCCCC2)CCCCC1)c1cn2ccccc2n1 | inactive: -15.4% |
| CC(C)(C)OC(=O)N1CCC(Nc2ccccc2)(C(=O)N2CCC2)CC1 | inactive: -5.83% |
| O=C(NCC1(N2CCOCC2)CCCCC1)c1ccc(Br)o1 | inactive: -7.42% |
| CN(C)C1(CNC(=O)c2ccccn2)CCCCC1 | inactive: -11% |
| Cc1ccc(C(C)CCN(CCCl)CCCl)cc1 (stereo not drawn) | inactive: -3.11% |
| Cc1nc([N+](=O)[O-])cn1CCC(=O)N[C@@H]1CCCC[C@H]1N1CCOCC1 | inactive: -9.12% |
| O=C(NCC1(N2CCCCC2)CCCCC1)c1cccs1 | inactive: -10.6% |
| c1ccc(NC2CCN(CCc3ccncc3)CC2)cc1 | inactive: -7.27% |

Source: PubChem BioAssay AID1259398 (Fisher Drug Discovery Resource Center, 2018)
